These results are taken from PubChem BioAssay AID493235 (Broad Institute, 2011).

The test is described as follows: HIF pathway activators in HRE-luciferase reporter, dose response, cell-based, U2OS, luminescence, dry powder, set 7 (AID 493235). The settings on record: at 38 µM (top of the series). Put shortly: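 Test system: human U2OS osteosarcoma cells stably expressing 3×HRE-driven luciferase reporter; input: 6,000 cells per well; medium: DMEM without phenol red, with 10% fetal bovine serum; compound: 8 concentrations, 3-fold steps; schedule: 24 h pre-culture, 24 h compound treatment, 37 °C; technique: luminescence with Steady-Glo luciferase reagent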

Only a part is listed here, and it is no random draw. Records with an inconclusive call do not appear. Active and inactive are the calls of the source.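 How the source made its calls: active means fitted dose curve passes 500% activation at or below the top valid tested dose; inconclusive means no clear call, values can overlap the other calls; inactive means the rest, opposite-direction activity included.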

`O=c1[nH]c2ccccc2n1C1CCN(Cc2ccc(O)c3ncccc23)CC1`: the activation was inactive: 79.7%.
